Target: T1, rat P2X3 receptor (Rattus norvegicus, UniProt P49654)
T1 construct: expressed in transfected cells; host or cells: CHO-K1
T1 sequence (P49654 1-397): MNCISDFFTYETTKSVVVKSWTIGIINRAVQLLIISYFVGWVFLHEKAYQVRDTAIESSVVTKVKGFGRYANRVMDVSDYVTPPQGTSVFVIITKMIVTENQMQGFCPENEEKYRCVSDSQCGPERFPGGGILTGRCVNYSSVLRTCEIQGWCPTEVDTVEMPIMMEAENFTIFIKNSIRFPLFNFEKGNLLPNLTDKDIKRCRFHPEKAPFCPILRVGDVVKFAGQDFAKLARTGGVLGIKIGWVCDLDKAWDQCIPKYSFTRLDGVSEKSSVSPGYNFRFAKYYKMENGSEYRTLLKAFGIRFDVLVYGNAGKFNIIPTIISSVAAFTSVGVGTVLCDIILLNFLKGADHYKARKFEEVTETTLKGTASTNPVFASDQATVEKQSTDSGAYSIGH
Assay: P2X3 FLIPR (Fluorometric Imaging Plate Reader) assay, CHO-K1 cells, α,β-meATP-evoked calcium fluorescence
Format: cell-based
Settings: agonist α,β-meATP 1 μM, read-out: pIC50 for the P2X3 receptor (converted)
Description: CHO-K1 cells were transfected with cloned rat P2X3 or human P2X2/3 receptor subunits and passaged in flasks. 18-24 hours before the FLIPR experiment, cells were released from their flasks, centrifuged, and resuspended in nutrient medium at 2.5×10^5 cells/ml. The cells were aliquoted into black-walled 96-well plates at a density of 50,000 cells/well and incubated overnight in 5% CO2 at 37° C. On the day of the experiment, cells were washed in FLIPR buffer (calcium- and magnesium-free Hank's balanced salt solution, 10 mM HEPES, 2 mM CaCl2, 2.5 mM probenecid; FB). Each well received 100 μl FB and 100 μl of the fluorescent dye Fluo-3 AM [2 μM final conc.]. […]
Test compounds (dissolved in DMSO at 10 mM and serially diluted with FB) or vehicle were added to each well (25 μl of a 4× solution) and allowed to equilibrate for 20 minutes at room temperature. […] Fluorescence was measured for an additional 2 minutes at 1 second intervals after agonist addition. A final addition of ionomycin (5 μM, final concentration) was made to each well of the FLIPR test plate to establish cell viability and maximum fluorescence of dye-bound cytosolic calcium. Peak fluorescence in response to the addition of α,β-meATP (in the absence and presence of test compounds) was measured and inhibition curves generated using nonlinear regression. […]

IC50: 2.95 nM
SMILES: COc1cc(C(C)C)c(Oc2cnc(NC(CO)CO)nc2N)cc1I [1a, 2-[4-Amino-5-(5-iodo-2-isopropyl-4-methoxy-phenoxy)-pyrimidin-2-ylamino]-propane-1,3-diol]

Reference: US20080207655A1, “Diaminopyrimidines as P2X3 and P2X2/3 modulators” (Roche Palo Alto LLC, priority 2007, published 2008)
